Test results taken from EP4736885A1, “ANTIBODY-DRUG CONJUGATE AND USE THEREOF” (priority 2023, dated 2025).

Tests used:
[1] = test system: human breast cancer SK-BR-3 cells; test: In vitro growth inhibition (resazurin); type: cell-based; conditions: SK-BR-3, 168±8 h
Experimental: The target cells were collected and resuspended to form a single-cell suspension, and the cell viability and cell count were determined by trypan blue staining. The cell density was adjusted to 1 × 10^5 cells/mL. The cell suspension was added to a 96-well black flat-bottom cell culture plate at 100 µL/well. […] The diluted test samples were added to the 96-well black flat-bottom cell culture plate (pre-seeded with cells) at 20 µL/well. The plate was incubated in a cell incubator (37 °C, 5% CO2) for 168±8 h. A resazurin sodium solution (0.03%) was added at 20 µL/well. The plate was then incubated at 37 °C for 3-4 h. Fluorescence values were measured using a microplate reader at 550 nm/610 nm. Plotting was performed using Prism or similar plotting software, and then the half-maximal inhibitory concentration IC50 values of the reference standard and the test samples were calculated by fitting.

[2] = DESTINY-Breast 03 clinical study; cited from earlier work
[3] = test system: breast cancer with low HER2 expression; conditions: cited from earlier work

## Enhertu
[1]
  IC50: 0.05374 µg/mL
[2]
  confirmed objective response rate (ORR): 79.7%
[3]
  confirmed ORR: 37.0%
